Laboratory results: patent US11926618B2, “Halogen-substituted phenylate compound and applications thereof” (HINOVA PHARMACEUTICALS INC., priority 2019, dated 2024)

Sequences of proteins named here, by UniProt entry; tags and fusion partners are left off. Residues count along the entry.
UniProt P10828, 217-461 limits assumed: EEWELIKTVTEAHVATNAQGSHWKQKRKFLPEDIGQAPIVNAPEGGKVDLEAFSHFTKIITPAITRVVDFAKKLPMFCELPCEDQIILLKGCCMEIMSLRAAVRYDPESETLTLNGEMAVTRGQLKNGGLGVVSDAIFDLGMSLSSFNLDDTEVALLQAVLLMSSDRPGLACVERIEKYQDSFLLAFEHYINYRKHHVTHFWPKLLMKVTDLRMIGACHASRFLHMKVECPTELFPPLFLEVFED
UniProt P10827, 163-410 isoform P10827-2 limits assumed: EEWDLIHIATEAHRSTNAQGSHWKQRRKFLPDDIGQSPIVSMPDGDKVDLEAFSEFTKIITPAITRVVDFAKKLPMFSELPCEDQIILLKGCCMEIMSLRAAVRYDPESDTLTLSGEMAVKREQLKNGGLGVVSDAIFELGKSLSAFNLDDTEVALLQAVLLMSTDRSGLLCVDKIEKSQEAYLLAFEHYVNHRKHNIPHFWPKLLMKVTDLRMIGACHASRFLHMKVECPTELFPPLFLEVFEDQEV

Assays:
THR-β = biological target: T1, THR-β (Homo sapiens, UniProt P10828); experiment: Agonistic activity on THR-β (TRβ-LBD/RXRα, biotin-SRC2-2 recruitment, fluorescence ratio 665 nm/615 nm); format: biochemical; details: THR-α EC50 ÷ THR-β EC50
T1 construct: A mixed solution of 4× TRα-LBD or TRβ-LBD and 4× RXRα was prepared
Description: (§1) 100× solutions of reference compounds or compounds were prepared with DMSO and then diluted in a 1:3 equal ratio. The gradient dilution of 100× reference compound or compound was further diluted to 4× with 1× reaction buffer and then added to the test plate. A mixed solution of 4× TRα-LBD or TRβ-LBD and 4× RXRα was prepared with 1× reaction buffer and added to the test plate. […] The plate was centrifuged at 1000 rpm for 1 min and then incubated at room temperature and in the dark for 4 h.

THR-α = biological target: T2, THR-α (Homo sapiens, UniProt P10827); experiment: Agonistic activity on THR-α (TRα-LBD/RXRα, biotin-SRC2-2 recruitment, fluorescence ratio 665 nm/615 nm); format: biochemical; details: in words, versus MGL-3196
T2 construct: A mixed solution of 4× TRα-LBD or TRβ-LBD and 4× RXRα was prepared
Description: as §1

| SMILES | Selectivity THR-β/THR-α (THR-β) | Agonistic activity for THR-α compared to control compound MGL-3196 (THR-α) |
| --- | --- | --- |
| CC(C)c1cc(Oc2c(Cl)cc(-n3nc(C#N)c(=O)[nH]c3=O)cc2Br)n[nH]c1=O [Compound 1, 2-(3-bronco-5-chloro-4-((5-isopropyl-6-oxo-1,6-dihydropyridazin-3-yl)oxy)phenyl)-3,5-dioxo-2,3,4,5-tetrahydro-1,2,4-triazine-6-nitrile] | 18 |  |
| [2H]C([2H])([2H])C(c1cc(Oc2c(Cl)cc(-n3nc(C#N)c(=O)[nH]c3=O)cc2Br)n[nH]c1=O)C([2H])([2H])[2H] [Compound 2, 2-(3-bromo-5-chloro-4-((5-di(trideuteromethyl)methyl-6-oxo-1,6-dihydropyridazine-3-yl)oxy)phenyl)-3,5-dioxo-2,3,4,5-tetrahydro-1,2,4-triazine-6-nitrile] | 20 |  |
| [2H]c1c(Oc2c(Cl)cc(-n3nc(C#N)c(=O)[nH]c3=O)cc2Br)n[nH]c(=O)c1C(C([2H])([2H])[2H])C([2H])([2H])[2H] [Compound 3, 2-(3-bromo-5-chloro-4-((4-deutero-5-(1,1,1,3,3,3-hexadeuteropropyl-2-yl)-6-oxo-1,6-dihydropyrazin-3-yl)oxy)phenyl)-3,5-dioxy-2,3,4,5-tetrahydro-1,2,4-triazine-6-nitrile] | 22 | significantly higher agonistic activities |
